## Antibody variant affinities, Ab-14 heavy chain, assay B

Binding partner: SARS-CoV-2 spike HR2 peptide, sequence PDVDLGDISGINAS.

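The starting antibody came from a phage panning campaign against this peptide. This is the validation round: designs drawn from the data on random variants, tested in the same kind of assay. Group labels follow the data file (Ctrl: baseline library sampled from a position-specific scoring matrix, with some repeated check sequences; En: ensemble of fine-tuned language models; GP: Gaussian process model; GPLM: also part of the Gaussian process libraries; HC: hill climbing; Gen: genetic algorithm; Gibbs: Gibbs sampling; a sequence that several methods proposed may carry one label only). AlphaSeq pools MATa yeast showing the antibodies with MATalpha yeast showing the peptide. The frequency of each diploid, read from paired DNA barcodes, reflects how well the two displayed proteins bind. Scores were corrected for input abundance and mapped to Kd with protein pairs of known affinity run in the same pool. The assay was run in six technical replicates.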

The variants keep the light chain, the linker and the frameworks of Ab-14 (scFv order VH, a 15-residue (Gly4Ser)3 linker, VL).
VH: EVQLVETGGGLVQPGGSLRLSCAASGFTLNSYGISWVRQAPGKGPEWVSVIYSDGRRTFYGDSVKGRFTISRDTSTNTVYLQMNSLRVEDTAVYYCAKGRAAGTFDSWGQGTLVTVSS
VL: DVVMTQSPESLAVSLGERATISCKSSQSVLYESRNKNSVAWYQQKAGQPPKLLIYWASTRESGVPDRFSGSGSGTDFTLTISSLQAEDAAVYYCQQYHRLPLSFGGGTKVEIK

Variants are written as CDR1, CDR2 and CDR3 of the heavy chain (limits as in the source). Parent: GFTLNSYGIS, VIYSDGRRTFYGDSVK, GRAAGTFDS. Values are log10 of the apparent Kd in nM; lower means stronger binding. A mean of the replicates is given; it leaves out those without a signal. "n.d." means that the variant was in the library but no mating with the target was seen in that replicate; the authors take this as a sign of poor binding, and no number exists. A sequence measured in both rounds can read differently, since the two assays cover different ranges.

CDR-H1	CDR-H2	CDR-H3	group	log10 Kd (nM) by replicate	mean log10 Kd (nM)
GFTNNSYGIS	VIYSDGRRTFYGDSVK	GTQAGPFDS	Ctrl	n.d. n.d. n.d. n.d. n.d. n.d.	n.d.
GFDLNEYGIS	VIYADGKRTAYADDVK	GNNAGTFDL	En_Gen	-0.18 -0.11 -0.39 -0.41 -0.47 -0.38	-0.32
GFTLNSYGIS	VIYSDGRRTFYQDSVK	GRAAINFDS	Ctrl	n.d. n.d. n.d. n.d. n.d. n.d.	n.d.
GENLEEYGIS	VIYADGIREQYTDDVK	GEQGGYFVT	En_Gibbs	n.d. n.d. n.d. n.d. n.d. n.d.	n.d.
GFDLNEYGIS	VIYADGRRTQYIDSVK	GENAGTFDL	En_HC	-0.09 -0.19 -0.13 -0.08 0.08 -0.07	-0.08
GFDLDEYGIS	VIYADGSRTFYADSVK	GNVAGTFDV	En_Gen	-0.17 -0.05 0.71 -0.43 1.45 0.42	0.32
GFTLNSYRIS	VIYSDGQRTFYQDDVK	SWEAGTFDS	Ctrl	n.d. n.d. n.d. n.d. n.d. n.d.	n.d.
GRDLDEYGIS	VIYADGVRQAYQDSVK	GNWSGTMMY	En_Gibbs	n.d. n.d. n.d. n.d. n.d. n.d.	n.d.
GFTLLSYGIS	VIYSDGRRTFYGDSVK	GREAGTFDS	Ctrl	n.d. n.d. 1.27 0.93 1.34 1.53	1.27
GFDLNSYGIS	VIYSDGRRTFYADKVK	GRTAGTFDS	GPLM_Gen	-0.17 -0.41 0.25 0.02 -0.15 0.26	-0.03
GFSLNSYGIS	VIYSDGRRTFYGDSVK	GQEAGTFDS	GPLM_Gen	1.18 0.34 0.12 0.23 0.38 0.60	0.47
GFTLESYGIS	VIYSDGRRTFYADSVK	GRAAGTFTS	GPLM_Gen	n.d. n.d. n.d. n.d. n.d. n.d.	n.d.
GFSLNSYGIS	VIYSDGRRTFYTDDVK	GRAAGTFDS	Ctrl	-0.91 -1.39 -0.50 0.00 -1.29 0.25	-0.64
GFTLNSYGIS	VIYADGRRTFYGDSVK	GHAAGTFDM	GPLM_Gen	-0.19 0.24 -0.62 -0.71 -0.50 0.01	-0.30
GFDLNEYGIS	VIYADGVRKAYADNVK	GENAGTFDV	En_Gen	-0.38 -0.42 -0.56 -0.73 -0.34 -0.52	-0.49
GFDLNSYGIS	VIYSDGRRSFYGDSVK	GEAAGTFDS	GP_Gibbs	0.53 0.71 0.47 0.16 0.17 0.82	0.48
GADLKEYGIS	VIYADGSRTAYSKNVK	GEFDDMVLV	En_Gibbs	n.d. n.d. n.d. n.d. n.d. n.d.	n.d.
GFALNQYGIS	VIYSDGRRTFYSDSVK	GRQAGTFDS	GP_HC	n.d. n.d. n.d. n.d. n.d. n.d.	n.d.
GFTLNSYGIS	VIYSDKRRTFYGDSVK	GDAAGTFDS	Ctrl	n.d. n.d. n.d. n.d. n.d. n.d.	n.d.
GFDLNEYGIS	VIYADGRRTAYTDSVK	GHEAGTFDL	En_HC	-0.29 n.d. -0.57 0.06 -0.03 0.40	-0.08
GFDLNEYGIS	VIYADGMRTHYTDSVK	GNNAGTFDS	En_HC	0.08 -0.01 0.04 -0.20 -0.13 -0.01	-0.04
KFTLNSYGIS	VIYADGRRTFYGDSVK	GKTAGTFDS	GP_Gibbs	0.81 1.19 0.59 0.93 0.62 0.88	0.84
GFDLNEYGIS	VIYADGRRTFYIDSVK	GENAGTFNV	En_HC	-0.37 -0.66 -0.69 -0.67 -0.59 -0.53	-0.59
GFDLDEYGIS	VIYADGMRTAYADDVK	GQVAGTFDV	En_Gen	-0.60 -0.95 -0.60 -0.81 -0.57 -0.67	-0.70
GFDLNSYGIS	VIYSDGRRTFYQDSVK	GKAAGTFDS	GPLM_HC	n.d. n.d. n.d. n.d. n.d. n.d.	n.d.
GFTLNEYGIS	VIYSDGRRTWYGDSVK	GRAAGTFIS	GP_HC	n.d. n.d. n.d. n.d. n.d. n.d.	n.d.
GFNLDEYGIS	VIYADGKRTAYSDSVK	GNVAGTFDV	En_Gen	-0.09 -0.29 -0.60 -0.40 0.73 -0.23	-0.15
GFDLDEYGVS	VIYADGERTFYADKVK	GTHGETRDI	En_Gibbs	n.d. n.d. n.d. n.d. n.d. n.d.	n.d.
GFSLEEYGIS	VIYADGSRTSYQESVK	GLYIGMLDM	En_Gibbs	n.d. n.d. n.d. n.d. n.d. n.d.	n.d.
GFNLEEYGIS	VIYADGKRTFYTDAVK	GTWGVFGLG	En_Gibbs	n.d. n.d. n.d. n.d. n.d. n.d.	n.d.
GFTLLSYGIS	VIYSDGRRTAYGDSVK	GWTAGTFDS	Ctrl	n.d. n.d. n.d. n.d. 2.59 0.35	1.47
GFDLNEYGIS	VIYADGRRTFYADNVK	GEVAGTFFV	En_HC	0.26 0.26 0.08 0.17 0.32 0.54	0.27
GFDLNEYGIS	VIYADGKRTAYADNVK	GETAGTFDI	En_Gen	0.27 -0.71 -1.15 -1.08 -0.46 -0.91	-0.67
GFTLNSYGIS	VIYSDGQRNFYGDDVK	GRVADTFDS	Ctrl	n.d. n.d. n.d. n.d. n.d. n.d.	n.d.
GFDLNEYGIS	VIYADGMRTAYKDSVK	GNVAGTFDV	En_Gen	-0.02 -0.36 -0.59 0.03 -0.30 0.21	-0.17
GFDLDEYGIS	VIYADGRRTFYADSVK	GELAGTFFM	En_HC	1.03 0.49 0.55 0.37 0.70 0.60	0.62
GFELNSYGIS	VIYSDGRRTFYIDSVK	GKAAGTFDV	GP_Gen	0.52 0.97 1.45 0.32 1.30 2.27	1.14
GFSLNEYGIS	VIYSDGRRTFYGDSVK	GFAAGTFDR	GP_HC	1.25 0.71 1.11 0.79 0.84 1.01	0.95
KFTLNEYGIS	VIYSDGRRTFYGDSVK	GRNAGTFDS	GP_HC	n.d. 1.86 n.d. 2.45 n.d. 3.08	2.47
GFTLNDYGIS	VIYSDGRRTFYGDSVK	GRQAGTFDI	GPLM_HC	1.42 2.09 0.84 0.91 1.46 1.84	1.43
GFSLDEYGIS	VIYADGRRTFYQDNVK	GNVAGTFDV	En_HC	-1.11 -1.46 -1.53 -1.13 -1.33 -1.34	-1.32
GFDLNEYGIS	VIYADGRRTAYADDVK	GEVAGTFDQ	En_Gen	1.73 0.94 0.98 0.71 0.94 0.71	1.00
QFTLNEYGIS	VIYSDFRRTFYADSVK	GRAAGTFDS	Ctrl	n.d. n.d. n.d. n.d. n.d. n.d.	n.d.
GFDLEDYGIS	VIYADGRRTAYIDSVK	GEIAGTFDS	En_HC	0.09 0.06 0.27 -0.12 0.02 0.09	0.07

Top 7 of the variants detected in all replicates, tightest first:

CDR-H1	CDR-H2	CDR-H3	group	log10 Kd (nM) by replicate	mean log10 Kd (nM)
GFSLDEYGIS	VIYADGRRTFYQDNVK	GNVAGTFDV	En_HC	-1.11 -1.46 -1.53 -1.13 -1.33 -1.34	-1.32
GFDLDEYGIS	VIYADGMRTAYADDVK	GQVAGTFDV	En_Gen	-0.60 -0.95 -0.60 -0.81 -0.57 -0.67	-0.70
GFDLNEYGIS	VIYADGKRTAYADNVK	GETAGTFDI	En_Gen	0.27 -0.71 -1.15 -1.08 -0.46 -0.91	-0.67
GFSLNSYGIS	VIYSDGRRTFYTDDVK	GRAAGTFDS	Ctrl	-0.91 -1.39 -0.50 0.00 -1.29 0.25	-0.64
GFDLNEYGIS	VIYADGRRTFYIDSVK	GENAGTFNV	En_HC	-0.37 -0.66 -0.69 -0.67 -0.59 -0.53	-0.59
GFDLNEYGIS	VIYADGVRKAYADNVK	GENAGTFDV	En_Gen	-0.38 -0.42 -0.56 -0.73 -0.34 -0.52	-0.49
GFDLNEYGIS	VIYADGKRTAYADDVK	GNNAGTFDL	En_Gen	-0.18 -0.11 -0.39 -0.41 -0.47 -0.38	-0.32

The authors' rule: three or more of the six replicates give a measured affinity, fewer mean a poor binder. Empty control strains, which show no peptide, gave a signal in 1% of pairings with all heavy chain designs; the median was 2.08 and 95% of these signals were weaker than 0.84. No background was subtracted. Of ten entries with the parent sequence, four were seen in most replicates (averages 0.34 to 2.37), three in one and three in none, so single entries are noisy.

Reference: Li et al. 2023, doi:10.1038/s41467-023-39022-2. File: FLAb, binding data.